Assay results: patent publication US5010083A, “2,6-methano-1,3-benzodiazocine compounds which have useful pharmaceutical utility” (priority 1989, dated 1991)

Target: T1, brain acetylcholinesterase (AChE) (Rattus norvegicus, UniProt P37136)
T1 construct: corpora striata dissected free, weighed and homogenized in 19 volumes; from tissue; host or cells: corpora striata of male Wistar rats, whole homogenate
T1 sequence (P37136 32-614): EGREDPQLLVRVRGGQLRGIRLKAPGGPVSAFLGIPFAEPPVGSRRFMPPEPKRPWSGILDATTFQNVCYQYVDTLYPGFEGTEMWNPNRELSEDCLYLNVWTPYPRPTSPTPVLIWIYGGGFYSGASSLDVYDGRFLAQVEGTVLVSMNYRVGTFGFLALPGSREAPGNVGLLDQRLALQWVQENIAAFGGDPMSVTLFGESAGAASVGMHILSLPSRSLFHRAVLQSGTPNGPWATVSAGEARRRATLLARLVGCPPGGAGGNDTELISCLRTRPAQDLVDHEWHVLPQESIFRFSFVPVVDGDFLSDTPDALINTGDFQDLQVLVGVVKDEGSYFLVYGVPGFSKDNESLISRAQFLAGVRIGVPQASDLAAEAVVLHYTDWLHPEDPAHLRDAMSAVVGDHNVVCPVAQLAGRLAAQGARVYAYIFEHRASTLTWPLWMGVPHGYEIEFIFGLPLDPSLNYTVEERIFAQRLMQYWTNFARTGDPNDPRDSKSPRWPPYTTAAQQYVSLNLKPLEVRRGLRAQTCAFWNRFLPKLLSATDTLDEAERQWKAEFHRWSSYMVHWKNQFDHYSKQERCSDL
Assay: In Vitro Inhibition of Acetylcholinesterase Activity in Rat Striatum
Assay type: biochemical, rat (male Wistar)
Details: rat striatum homogenate, 10 min preincubation, pH 7.2, read-out: Inhibition of Brain Acetycholinesterase Activity, Inhibitory Concentration
Source text: Cholinesterases are found throughout the body, both in the brain and in serum. However, only brain acetylcholinesterase (AChE) distribution is correlated with central cholinergic innervation. […] We have determined in vitro inhibition of acetylcholinesterase activity in rat striatum according to the method described below.
The method described below was used in this invention for assaying anticholinesterase activity.
1. 0.05M Phosphate buffer, pH 7.2
(c) add (a) to (b) until pH reaches 7.2
(a) 9.9 mg 5,5-dithiobisnitrobenzoic acid (DTNB) (0.25 mM)
(b) 99 mg s-acetylthiocholine chloride (5 mM)
(c) q.s. to 100 ml with 0.05M phosphate buffer, pH 7.2 (reagent 1)
Male Wistar rats are decapitated, brains rapidly removed, corpora striata dissected free, weighed and homogenized in 19 volumes (approximately 7 mg protein/ml) of 0.05M phosphate buffer, pH 7.2 using a Potter-Elvehjem homogenizer. […]
Using the indicated instrument settings the ABA-100 automatically reads the color reaction and prints out the results in enzyme units after 15 minutes.
2. The enzyme activity can also be measured with a Gilford 250 spectrophotometer. […]
The uninhibited activity of the enzyme (tissue homogenate) is first determined. […] The reaction rate is determined by the slope of the recorded absorbance change. The actual rate (moles/liter/min) can be calculated as described in the following formula

## [2S-[2b,6b]] and [2R-[2a,6a]]-1,2,3,4,5,6-Hexahydro-2,6-methano-1,3-benzodiazocin-8-ol, S-α-methylbenzylcarbamate salicylate
  IC50: 8.7 µM
